Measurements reported in IntAct's records for PubMed 22267482.

B1: Tumor necrosis factor-inducible gene 6 protein (Homo sapiens), P98066 (parent)
chain: MIILIYLFLLLWEDTQGWGFKDGIFHNSIWLERAAGVYHREARSGKYKLTYAEAKAVCEFEGGHLATYKQLEAARKIGFHVCAAGWMAKGRVGYPIVKPGPNCGFGKTGIIDYGIRLNRSERWDAYCYNPHAKECGGVFTDPKQIFKSPGFPNEYEDNQICYWHIRLKYGQRIHLSFLDFDLEDDPGCLADYVEIYDSYDDVHGFVGRYCGDELPDDIISTGNVMTLKFLSDASVTAGGFQIKYVAMDPVSKSSQGKNTSTTSTGNKNFLAGRFSHL

Variants of: B1
Conditions: with ptx3_human PTX3, P26022

| Variant | effect of a mutation on the interaction |
| --- | --- |
| Y47F | decreasing interaction strength |
| Y94F | with no effect |
| E183S | with no effect |
